In patent US5013539A, “Method and composition for antagonism of sodium nitroprusside toxic effects” (dated 1991):

Columns and labels:
[1] = prior art; cited from earlier work
[2] = tested on: Male ICR mice; assay: Toxicity of alpha-ketoglutaric acid alone in animals
[3] = tested on: rats; assay: Sodium nitroprusside infusion in rats (hypotension, mortality); conditions: alpha-ketoglutaric acid added to sodium nitroprusside
[4] = tested on: Male ICR mice; assay: Effects of pretreatment regimen on the LD50 value of potassium cyanide in mice; conditions: group B alpha-ketoglutaric acid vs group A control

Row | Molecule | toxic effects of its own [1] | lethality of alpha-ketoglutaric acid alone ([2]; doses of 1, 2, and 4 grams per kilogram of body weight) | symptoms after alpha-ketoglutaric acid ([2]; doses up to 2 g/kg) | effect on hypotension induced by sodium nitroprusside [3] | Potency Ratio (LD50 of KCN, alpha-ketoglutaric acid pretreated over saline control) [4]
1 | Cobalt edetate | atrial fibrillation, gastrointestinal hemmorrhage and anaphylactoid reactions |  |  |  | 
2 | O=C(O)CCC(=O)C(=O)O |  | No lethality was observed | no symptoms more remarkable than lethargy | does not abate the hypotension | 5.0 (4.5-5.5)
